Reference: PubChem BioAssay (Tox21)
Several values for one entry are separate records, joined by “and”; a condition that tells them apart may be missing. Equal entries are not always repeated. Only a part is listed here, and it is no random draw. Inconclusive results are not listed. Activity calls are given as the source filed them. Unless noted, calls follow the shape of the dose curve; as a rule, active = well fitted curve in the direction sought with a large enough effect in the repeat runs; inconclusive = weak or mixed curves; inactive = no such curve, though single readings can be large; an effect the other way counts as inactive or inconclusive.

Chains of the proteins cited; added tags and fusions are not shown.
UniProt P03372, whole entry: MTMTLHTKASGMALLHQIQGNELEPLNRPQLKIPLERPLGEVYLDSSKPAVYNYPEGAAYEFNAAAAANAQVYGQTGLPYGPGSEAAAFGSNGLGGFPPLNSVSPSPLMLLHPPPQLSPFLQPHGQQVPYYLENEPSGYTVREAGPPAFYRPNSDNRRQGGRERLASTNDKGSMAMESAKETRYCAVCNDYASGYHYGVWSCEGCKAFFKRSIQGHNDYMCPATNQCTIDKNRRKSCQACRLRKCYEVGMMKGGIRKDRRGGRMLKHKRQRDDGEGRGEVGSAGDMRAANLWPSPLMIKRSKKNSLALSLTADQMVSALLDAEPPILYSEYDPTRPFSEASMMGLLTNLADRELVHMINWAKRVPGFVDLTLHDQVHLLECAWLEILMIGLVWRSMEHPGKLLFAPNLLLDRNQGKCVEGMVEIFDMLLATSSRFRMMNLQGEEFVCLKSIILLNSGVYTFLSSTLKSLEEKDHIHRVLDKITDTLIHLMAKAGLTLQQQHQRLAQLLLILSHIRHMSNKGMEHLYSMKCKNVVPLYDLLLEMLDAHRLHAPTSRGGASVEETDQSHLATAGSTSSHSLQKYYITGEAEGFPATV
UniProt P16473, whole entry: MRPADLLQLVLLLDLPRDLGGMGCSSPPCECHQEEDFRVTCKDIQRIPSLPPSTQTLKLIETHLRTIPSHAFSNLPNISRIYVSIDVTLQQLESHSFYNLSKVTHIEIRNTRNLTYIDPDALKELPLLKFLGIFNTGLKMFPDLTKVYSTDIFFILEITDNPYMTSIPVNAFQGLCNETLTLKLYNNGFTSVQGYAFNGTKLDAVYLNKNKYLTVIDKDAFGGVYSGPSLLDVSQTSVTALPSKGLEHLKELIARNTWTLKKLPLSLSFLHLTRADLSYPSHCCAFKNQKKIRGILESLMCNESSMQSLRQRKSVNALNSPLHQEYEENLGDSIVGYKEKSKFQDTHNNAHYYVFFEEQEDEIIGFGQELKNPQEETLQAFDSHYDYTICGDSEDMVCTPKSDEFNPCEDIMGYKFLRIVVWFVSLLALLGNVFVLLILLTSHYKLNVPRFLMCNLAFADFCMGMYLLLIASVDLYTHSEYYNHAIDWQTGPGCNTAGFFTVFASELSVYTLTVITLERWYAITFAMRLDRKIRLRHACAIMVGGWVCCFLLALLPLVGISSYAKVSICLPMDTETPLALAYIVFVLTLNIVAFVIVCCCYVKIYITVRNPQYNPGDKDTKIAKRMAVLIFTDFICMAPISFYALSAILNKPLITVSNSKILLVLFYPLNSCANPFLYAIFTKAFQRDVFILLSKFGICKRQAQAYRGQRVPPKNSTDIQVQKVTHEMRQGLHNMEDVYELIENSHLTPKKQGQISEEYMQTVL
UniProt P06401, whole entry: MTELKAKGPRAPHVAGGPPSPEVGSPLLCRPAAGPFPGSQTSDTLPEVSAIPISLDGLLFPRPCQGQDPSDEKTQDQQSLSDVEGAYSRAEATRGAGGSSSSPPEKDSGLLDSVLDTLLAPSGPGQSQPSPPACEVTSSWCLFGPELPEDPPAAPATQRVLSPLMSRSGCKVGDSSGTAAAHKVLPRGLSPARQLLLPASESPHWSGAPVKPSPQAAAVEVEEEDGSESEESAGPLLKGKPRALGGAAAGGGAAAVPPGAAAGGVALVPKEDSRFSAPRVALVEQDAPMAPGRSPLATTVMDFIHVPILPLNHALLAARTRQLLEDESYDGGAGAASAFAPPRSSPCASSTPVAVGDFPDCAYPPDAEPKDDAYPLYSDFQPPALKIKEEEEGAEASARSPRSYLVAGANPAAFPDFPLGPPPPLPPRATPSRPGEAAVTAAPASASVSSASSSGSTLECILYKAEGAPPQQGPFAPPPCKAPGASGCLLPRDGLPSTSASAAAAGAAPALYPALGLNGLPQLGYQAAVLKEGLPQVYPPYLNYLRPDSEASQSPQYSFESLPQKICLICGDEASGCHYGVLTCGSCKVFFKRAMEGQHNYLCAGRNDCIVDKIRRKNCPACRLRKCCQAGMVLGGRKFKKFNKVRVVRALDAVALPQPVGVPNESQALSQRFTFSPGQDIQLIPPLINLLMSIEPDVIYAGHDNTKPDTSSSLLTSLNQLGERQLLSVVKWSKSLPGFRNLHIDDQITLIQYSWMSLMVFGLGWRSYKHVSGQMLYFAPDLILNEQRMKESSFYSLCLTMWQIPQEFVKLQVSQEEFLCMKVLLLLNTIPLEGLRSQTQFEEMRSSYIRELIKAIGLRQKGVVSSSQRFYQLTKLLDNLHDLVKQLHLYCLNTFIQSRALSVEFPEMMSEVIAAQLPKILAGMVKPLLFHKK
UniProt P34981, whole entry: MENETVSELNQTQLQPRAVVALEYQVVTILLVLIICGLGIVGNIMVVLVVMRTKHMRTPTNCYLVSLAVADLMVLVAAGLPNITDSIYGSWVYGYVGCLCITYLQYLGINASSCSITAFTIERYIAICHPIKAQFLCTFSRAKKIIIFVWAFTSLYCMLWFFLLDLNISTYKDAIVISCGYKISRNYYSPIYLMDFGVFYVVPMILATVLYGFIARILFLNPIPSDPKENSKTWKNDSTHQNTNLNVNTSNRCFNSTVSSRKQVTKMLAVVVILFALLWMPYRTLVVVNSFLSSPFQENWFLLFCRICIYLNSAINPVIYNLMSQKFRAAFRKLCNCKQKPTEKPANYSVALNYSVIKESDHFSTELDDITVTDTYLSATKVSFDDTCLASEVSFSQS
UniProt P05177, whole entry: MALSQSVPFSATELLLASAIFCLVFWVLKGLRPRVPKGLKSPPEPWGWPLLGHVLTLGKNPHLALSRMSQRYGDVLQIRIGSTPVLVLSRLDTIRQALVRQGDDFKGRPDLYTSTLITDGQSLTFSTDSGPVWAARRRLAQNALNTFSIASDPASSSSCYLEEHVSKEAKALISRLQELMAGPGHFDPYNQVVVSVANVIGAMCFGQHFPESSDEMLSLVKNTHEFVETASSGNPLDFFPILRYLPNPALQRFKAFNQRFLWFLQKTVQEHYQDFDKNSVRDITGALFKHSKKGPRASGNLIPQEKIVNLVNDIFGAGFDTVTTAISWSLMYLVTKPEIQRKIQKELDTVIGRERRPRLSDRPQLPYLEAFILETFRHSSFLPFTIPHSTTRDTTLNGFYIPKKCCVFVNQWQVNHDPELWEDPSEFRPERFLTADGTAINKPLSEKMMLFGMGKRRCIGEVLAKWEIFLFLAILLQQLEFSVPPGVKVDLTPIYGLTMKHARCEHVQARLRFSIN
UniProt Q12809, whole entry: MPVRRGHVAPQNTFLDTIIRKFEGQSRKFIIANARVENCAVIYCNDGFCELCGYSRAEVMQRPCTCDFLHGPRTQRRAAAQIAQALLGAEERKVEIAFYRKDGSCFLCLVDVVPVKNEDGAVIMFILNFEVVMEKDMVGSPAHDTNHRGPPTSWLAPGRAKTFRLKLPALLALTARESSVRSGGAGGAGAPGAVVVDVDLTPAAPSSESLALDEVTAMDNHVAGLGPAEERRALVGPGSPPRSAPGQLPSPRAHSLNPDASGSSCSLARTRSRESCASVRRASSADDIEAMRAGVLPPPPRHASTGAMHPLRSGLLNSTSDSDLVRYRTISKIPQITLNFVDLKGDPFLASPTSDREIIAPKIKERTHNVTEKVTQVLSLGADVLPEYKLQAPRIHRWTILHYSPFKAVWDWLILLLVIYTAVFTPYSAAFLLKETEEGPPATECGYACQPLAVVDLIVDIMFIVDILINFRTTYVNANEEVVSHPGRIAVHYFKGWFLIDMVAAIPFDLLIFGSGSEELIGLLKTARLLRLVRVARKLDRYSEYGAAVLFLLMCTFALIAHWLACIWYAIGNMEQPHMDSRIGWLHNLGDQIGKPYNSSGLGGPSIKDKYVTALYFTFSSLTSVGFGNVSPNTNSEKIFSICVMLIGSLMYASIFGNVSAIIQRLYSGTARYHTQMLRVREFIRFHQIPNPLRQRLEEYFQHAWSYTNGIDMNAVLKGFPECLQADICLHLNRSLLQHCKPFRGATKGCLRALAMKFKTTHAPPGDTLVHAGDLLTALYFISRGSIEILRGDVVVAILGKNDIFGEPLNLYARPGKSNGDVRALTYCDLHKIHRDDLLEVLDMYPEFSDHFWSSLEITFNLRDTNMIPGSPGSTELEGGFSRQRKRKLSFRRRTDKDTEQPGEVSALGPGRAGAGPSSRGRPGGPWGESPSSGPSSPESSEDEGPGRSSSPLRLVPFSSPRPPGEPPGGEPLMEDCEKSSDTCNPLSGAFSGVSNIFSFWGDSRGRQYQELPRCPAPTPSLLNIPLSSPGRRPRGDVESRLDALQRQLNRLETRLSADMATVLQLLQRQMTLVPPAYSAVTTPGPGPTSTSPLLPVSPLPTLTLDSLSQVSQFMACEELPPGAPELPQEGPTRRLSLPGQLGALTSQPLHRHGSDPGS
UniProt P08684, whole entry: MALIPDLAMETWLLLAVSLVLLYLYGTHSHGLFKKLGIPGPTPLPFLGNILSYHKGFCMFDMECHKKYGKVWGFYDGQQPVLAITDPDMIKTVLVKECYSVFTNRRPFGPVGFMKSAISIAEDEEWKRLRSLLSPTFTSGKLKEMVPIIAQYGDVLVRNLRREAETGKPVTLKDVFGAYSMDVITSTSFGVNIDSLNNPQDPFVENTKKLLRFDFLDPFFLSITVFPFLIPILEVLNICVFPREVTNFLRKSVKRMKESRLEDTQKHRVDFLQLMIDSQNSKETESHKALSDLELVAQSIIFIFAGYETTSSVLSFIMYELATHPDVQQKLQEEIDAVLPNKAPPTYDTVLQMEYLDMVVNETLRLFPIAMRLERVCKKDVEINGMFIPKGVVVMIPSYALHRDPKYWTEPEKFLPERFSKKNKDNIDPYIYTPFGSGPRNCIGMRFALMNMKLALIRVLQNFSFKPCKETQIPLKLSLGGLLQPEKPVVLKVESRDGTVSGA

Assays:
[1] = qHTS assay to identify small molecule antagonists of the estrogen receptor beta (ER-beta) signaling pathway - cell viability counter screen (AID 1259382); settings: ER-beta-UAS-bla HEK293T viability, CellTiter-Glo luminescence, 16 h; at 92.4 µM (top of the series) unless noted; also: nearly all actives have a fitted effect of over 55% in size
Outline: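 Agonist-stimulated (1nM E2) ER-beta-UAS-bla HEK293T cells are incubated with library compounds for 16 hr at 37C. Cell viability is then assessed in the reporter-assay wells by adding CellTiter-Glo and reading luminescence after 30 min.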

[2] = target: Estrogen receptor (Homo sapiens) (UniProt P03372); assay: qHTS assay to identify small molecule agonists of the estrogen receptor alpha (ER-alpha) signaling pathway in the presence of an antagonist (AID 1259383; calls by dose curve; also: top concentration of the series differs between compounds; nearly all actives have a fitted effect of over 15% in size); settings: VM7Luc4E2 cells, ERE-luciferase, +ICI-182,780, 22 h; at 92.4 µM (top of the series) unless noted
[3] = qHTS assay to identify small molecule agonists or antagonists of the thyroid stimulating hormone receptor (TSHR) signaling pathway - wild type cell line counter screen (AID 1259384; calls by dose curve); settings: HEK293 wild type, cAMP HTRF counter-screen, active compounds read high; at 92.4 µM (top of the series) unless noted
Outline: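 Counter screen in untransfected Hek293: compounds (15-point titration, triplicate) plus phosphodiesterase inhibitor Ro20-1724 added after 18 h plating; 30 min RT. Intracellular cAMP via competitive d2/cryptate immunoassay, 1 h incubation.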

[4] = target: Thyrotropin receptor (Homo sapiens) (UniProt P16473); assay: qHTS assay to identify small molecule antagonists of the thyroid stimulating hormone receptor (TSHR) signaling pathway (AID 1259385; calls by dose curve; also: nearly all actives have a fitted effect of over 20% in size); settings: TSHR-HEK293 cAMP HTRF, TSH-stimulated antagonist mode; at 92.4 µM (top of the series)
[5] = qHTS assay to identify small molecule agonists of the estrogen receptor alpha (ER-alpha) signaling pathway in the presence of an antagonist - cell viability counter screen (AID 1259386); settings: VM7Luc4E2 viability, CellTiter-Fluor fluorescence, 22 h; at 92.4 µM (top of the series);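 also: cells exposed to compounds for 22 h at 37 °C before the viability read; nearly all actives have a fitted effect of over 30% in size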
Outline: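 ICI-182,780 at 10.0nM final accompanies the compound titration (15 concentrations, 22hr, 37C) on VM7Luc4E2 cells. The CellTiter-Fluor fluorescence readout runs in the same wells as the luciferase assay.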

[6] = target: Progesterone receptor (Homo sapiens) (UniProt P06401); assay: qHTS assay to identify small molecule antagonists of the progesterone receptor (PR) signaling pathway (AID 1346795; active = well fitted inhibition curve with a large enough effect in the signal ratio in the repeat runs, not every such curve was filed as active; the % refers to the signal ratio)
Outline: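 Beta-lactamase reporter, HEK293T PR-UAS-bla line; 2% charcoal-stripped FBS; 6 hr pre-incubation, 37C/5% CO2. Compound + R5020 1 nM final, 16 hr. LiveBLAzer B/G FRET substrate, 2 hr RT; fluorescence intensity read.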

[7] = qHTS assay to identify small molecule antagonists of the progesterone receptor (PR) signaling pathway - cell viability counter screen (AID 1346798); settings: PR-UAS-bla HEK293T viability, CellTiter-Glo luminescence, 16 h; also: nearly all actives have a fitted effect of over 50% in size
Outline: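 Luminescence readout (CellTiter-Glo, 30 min, RT) of viability in PR-UAS-bla HEK293T cells exposed to compound and R5020 agonist for 16 hr at 37C, 5% CO2; run in the same wells as the beta-lactamase reporter read.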

[8] = qHTS assay to identify small molecule agonists of the TGF-beta/Smad signaling pathway - cell viability counter screen (AID 1346829); settings: SBE-bla HEK293T viability, CellTiter-Glo luminescence, 5 h; at 76.8 µM (top of the series) unless noted; also: top concentration of the series differs between compounds; nearly all actives have a fitted effect of over 45% in size
Outline: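 Cytotoxicity counter screen: CellTiter-Glo luminescence (30 min, room temperature) measured in the SBE-bla HEK 293T reporter wells after 5 hr compound treatment at 37 C and the 2 hr substrate step.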

[9] = target: Thyrotropin-releasing hormone receptor (Homo sapiens) (UniProt P34981); assay: qHTS assay to identify small molecule antagonists of the thyrotropin-releasing hormone receptor (TRHR) signaling pathway (AID 1346877; active = well fitted inhibition curve with a large enough effect in the repeat runs, not every such curve was filed as active)
[10] = target: Thyrotropin-releasing hormone receptor (Homo sapiens) (UniProt P34981); assay: qHTS assay to identify small molecule agonists of the thyrotropin-releasing hormone receptor (TRHR) signaling pathway (AID 1346891; calls by dose curve;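 also: HEK293 cells expressing TRHR with calcium dye readout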); settings: TRHR-HEK293 calcium fluorescence, agonist mode
[11] = Human pregnane X receptor (PXR) small molecule agonists, qHTS cell viability counter screen (AID 1346977); also: nearly all actives have a fitted effect of over 50% in size
Outline: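 Fluorescence read-out (CellTiter-Fluor) of viability in PXR-Luc HepG2 cells, multiplexed with the luciferase agonist read. Compounds in DMSO added after 5hr plating; 24hr total exposure at 37C, 5% CO2.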

[12] = Caspase-3/7 induction in HepG2 cells by small molecules, qHTS assay (AID 1346978); settings: HepG2 caspase-3/7 activation, Caspase-Glo luminescence, 17 h; at 92.4 µM (top of the series) unless noted; also: nearly all actives have a fitted effect of over 15% in size
Outline: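 Caspase-3/7 induction was measured by Caspase-Glo 3/7 luminescence (30 min, room temperature) after a 17 hr compound exposure of wild-type HepG2 cells seeded at 2,000 per well and pre-incubated 5 hr.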

[13] = Caspase-3/7 induction in CHO-K1 cells by small molecules, qHTS cell viability counter screen (AID 1346979); also: nearly all actives have a fitted effect of over 35% in size
Outline: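 CHO-K1 wt, 1,500 cells/well; 5hr pre-incubation 37C/5% CO2; compound pin transfer (DMSO); 16hr exposure; CellTiter-Fluor added, 1hr, fluorescence read.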

[14] = Caspase-3/7 induction in CHO-K1 cells by small molecules, qHTS assay (AID 1346980); also: nearly all actives have a fitted effect of over 15% in size
Outline: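 Luminescent Caspase-Glo 3/7 read (30min, room temperature) quantified apoptosis induction. Cells were wild-type CHO-K1, treated with compound for 17hr at 37 C and 5% CO2.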

[15] = Caspase-3/7 induction in HepG2 cells by small molecules, qHTS cell viability counter screen (AID 1346981); settings: CellTiter-Fluor fluorescence, 17 h; also: nearly all actives have a fitted effect of over 30% in size
Outline: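 Multiplexed with the caspase-3/7 assay: HepG2 cells, 16 hr compound treatment, CellTiter-Fluor viability detection by fluorescence.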

[16] = target: Cytochrome P450 1A2 (Homo sapiens) (UniProt P05177); assay: Cytochrome P450 Family 1 Subfamily A Member 2 (CYP1A2) small molecule antagonists: luciferase reporter qHTS assay (AID 1671199); also: nearly all actives have a fitted effect of over 50% in size
[17] = target: Voltage-gated inwardly rectifying potassium channel KCNH2 (Homo sapiens) (UniProt Q12809); assay: Human Ether-a-go-go-Related Gene (hERG) channel small molecule antagonists: fluorescence cell-based qHTS assay (AID 1671200);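 also: hERG-expressing U2OS cells given a thallium stimulus after FluxOR II dye loading; nearly all actives have a fitted effect of over 50% in size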
Outline: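 Read-out: thallium influx as a surrogate for potassium, tracked as fluorescence (480 nm ex/540 nm em) every second for 2 min after Stimulus Buffer addition in dye-loaded hERG-U2OS cells.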

[18] = target: Cytochrome P450 3A4 (Homo sapiens) (UniProt P08684); assay: Cytochrome P450 Family 3 Subfamily A Member 4 (CYP3A4) small molecule antagonists: luciferase reporter qHTS assay (AID 1671201); also: nearly all actives have a fitted effect of over 50% in size
Outline: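 Luminescent readout (RLU) proportional to CYP3A4 activity, from luciferin generated off a proluciferin substrate. Enzyme–substrate mix plus compound 10 min at room temp, NADPH regeneration 1 h, detection reagent 20 min.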
% is scaled to controls: 0 for no effect and ±100 for the full control effect.

N=C(N)N[N+](=O)[O-]
inactive: activity change, negative = cytotoxicity [1] 1.42% | activation [2] -1.5% | cAMP activity change [3] -1.35% | activity change, negative = inhibition [4] 0.236% | activity change, negative = cytotoxicity [5] -3.75% | Potency [6] | activity change, negative = cytotoxicity ([7]; at 92.4 µM (top of the series)) 0.201% | activity change, negative = cytotoxicity [8] -14.9% | Potency [9] | activation ([10]; at 57.6 µM (top of the series)) -0.278% | Potency [11] | caspase activation [12] 0.43% | Potency [13] | Potency [14] | activity change, negative = cytotoxicity ([15]; at 92.4 µM (top of the series)) -0.0314% | Potency [16] | Potency [17] | Potency [18]

[NH4+].[O-][Cl+3]([O-])([O-])[O-]
inactive: activity change, negative = cytotoxicity [1] 9.19% and 3.33% | activity change, negative = cytotoxicity [5] -2.02% and 0.207% | Potency [6] | activity change, negative = cytotoxicity ([7]; at 92.4 µM (top of the series)) -5.76% and -15.5% | activity change, negative = cytotoxicity [8] -1.41% and -6.51% | Potency [9] | activation ([10]; at 57.6 µM (top of the series)) -0.202% and 0.0258% | Potency [11] | caspase activation [12] -0.0303% and 0.064% | Potency [13] | Potency [14] | activity change, negative = cytotoxicity ([15]; at 92.4 µM (top of the series)) 6.98% | Potency [16] | Potency [17] | Potency [18]

C/C1=C2N=C(/C=C3N=C(/C(C)=C4\[N-][C@@](C)([C@@H]5N=C1[C@](C)(CCC(=O)NC[C@@H](C)OP(=O)([O-])O[C@H]1[C@@H](O)[C@@H](n6cnc7cc(C)c(C)cc76)O[C@@H]1CO)[C@H]5CC(N)=O)[C@@](C)(CC(N)=O)[C@@H]4CCC(N)=O)[C@@](C)(CC(N)=O)[C@@H]\3CCC(N)=O)C(C)(C)[C@@H]/2CCC(N)=O.[C-]#N.[Co+3]
inactive: activity change, negative = cytotoxicity [1] 5.86% [at 42.5 µM] | activation [2] -2.73% [at 42.5 µM] | cAMP activity change [3] -1.7% [at 42.5 µM] | Potency [6] | activity change, negative = cytotoxicity ([7]; at 42.5 µM (top of the series)) -1% | activity change, negative = cytotoxicity [8] -0.0333% [at 35.3 µM] | Potency [9] | activation ([10]; at 26.5 µM (top of the series)) -0.599% | Potency [11] | caspase activation [12] -0.773% [at 42.5 µM] | Potency [13] | Potency [14] | activity change, negative = cytotoxicity ([15]; at 42.5 µM (top of the series)) -1.32% | Potency [17] | Potency [18]

O=[N+]([O-])[O-].[NH4+]
inactive: activity change, negative = cytotoxicity [1] 9.03% and 3.4% | cAMP activity change [3] -0.419% and 1.33% | activity change, negative = cytotoxicity [5] 2.42% and 0.204% | Potency [6] | activity change, negative = cytotoxicity ([7]; at 92.4 µM (top of the series)) -20.6% and 4.3% | activity change, negative = cytotoxicity [8] -8.67% and -4.74% | Potency [11] | caspase activation [12] -0.371% and -0.35% | Potency [13] | Potency [14] | activity change, negative = cytotoxicity ([15]; at 92.4 µM (top of the series)) 4.01% and 4.31% | Potency [17] | Potency [18]
